Test results: US9284333B2, “Fused pyrroledicarboxamides and their use as pharmaceuticals” (SANOFI, priority 2012, dated 2016)

Protein sequences, listed by entry. Tags and fused reporters are not part of them. Lines headed by an entry give the natural chain unless they say otherwise; changes in a name come on top.
UniProt O14649: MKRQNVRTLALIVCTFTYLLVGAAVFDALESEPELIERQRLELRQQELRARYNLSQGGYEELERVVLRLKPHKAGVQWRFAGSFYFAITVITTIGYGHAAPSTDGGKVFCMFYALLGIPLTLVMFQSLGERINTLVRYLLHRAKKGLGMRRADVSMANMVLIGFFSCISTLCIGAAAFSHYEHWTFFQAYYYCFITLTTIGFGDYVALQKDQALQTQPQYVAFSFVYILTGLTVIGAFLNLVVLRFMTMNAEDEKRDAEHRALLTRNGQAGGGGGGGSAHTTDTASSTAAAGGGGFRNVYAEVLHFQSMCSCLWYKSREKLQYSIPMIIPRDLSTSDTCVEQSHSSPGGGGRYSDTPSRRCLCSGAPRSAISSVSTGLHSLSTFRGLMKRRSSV

Target: Human TASK-1 channels (Homo sapiens (Human), UniProt O14649)
Assay: Determination of the activity on the TASK-1 channel in Xenopus oocytes (two-microelectrode voltage clamp)
Format: cell-based
Details: human TASK-1 expressed in Xenopus oocytes, room temperature; read-out: IC50 value for TASK-1 inhibition
Experimental: Determination of the activity on the TASK-1 channel in Xenopus oocytes
Human TASK-1 channels were expressed in Xenopus oocytes. For this purpose, oocytes were isolated from Xenopus laevis and defoliculated. Subsequently, TASK-1-encoding RNA synthesized in vitro was injected into the oocytes. After two days of TASK-1 protein expression, TASK-1 currents were measured by two-microelectrode voltage clamp. Data were acquired and analyzed using a TEC-10cx amplifier (NPI Electronic, Tamm, Germany) connected to an ITC-16 interface (Instrutech Corp., Long Island, USA) and Pulse software (HEKA Elektronik, Lambrecht, Germany). Oocytes were clamped to −90 mV and TASK-1 mediated currents were measured during 500 ms voltage pulses to 40 mV. Oocytes were continuously superfused with ND96 buffer containing 96 mM sodium chloride, 2 mM potassium chloride, 1.8 mM calcium chloride, 1 mM magnesium chloride, 5 mM 4-(2-hydroxyethyl)-piperazine-1-ethanesulfonic acid (HEPES; pH adjusted to 7.4 with sodium hydroxide). All experiments were performed at room temperature. Test compounds were consecutively added to the bath solution at rising concentrations. Compound effects were calculated as the percentage inhibition of TASK-1 control current before compound addition. IC50 values were obtained by fitting the data to the general dose-response equation.

Row | Structure (SMILES) | IC50
1 | CC[C@@H](NC(=O)c1c(Cl)c(C(=O)N2CCC[C@@H]2C)n2c1COCC2)c1ccc(C(F)(F)F)nc1 [16rv, 7-Chloro-6-((S)-2-methyl-pyrrolidine-1-carbonyl)-3,4-dihydro-1H-pyrrolo[2,1-c][1,4]oxazine-8-carboxylic acid [(R)-1-(6-trifluoromethyl-pyridin-3-yl)-propyl]-amide] | 870 nM
2 | CC[C@@H](NC(=O)c1cc(C(=O)N2CCC[C@@H]2C)c2n1CCSC2)c1ccccc1 [16kr, 8-((S)-2-Methyl-pyrrolidine-1-carbonyl)-3,4-dihydro-1H-pyrrolo[2,1-c][1,4]thiazine-6-carboxylic acid ((R)-1-phenyl-propyl)-amide] | 470 nM
3 | CC(C)[C@@H](NC(=O)c1cc(C(=O)N[C@H](C)c2ncccn2)c2n1CCOC2)c1ccc(F)cc1 (racemic) [16ls, 3,4-Dihydro-1H-pyrrolo[2,1-c][1,4]oxazine-6,8-dicarboxylic acid 6-{[(R)-1-(4-fluoro-phenyl)-2-methyl-propyl]-amide} 8-[((R)-1-pyrimidin-2-yl-ethyl)-amide]] | 470 nM
4 | CC[C@@H](NC(=O)c1c(Cl)c(C(=O)N2CCC[C@@H]2C)n2c1COCC2)c1ccccc1 [16rw, 7-Chloro-6-((S)-2-methyl-pyrrolidine-1-carbonyl)-3,4-dihydro-1H-pyrrolo[2,1-c][1,4]oxazine-8-carboxylic acid ((R)-1-phenyl-propyl)-amide] | 470 nM
5 | CC[C@@H](NC(=O)c1cc(C(=O)N[C@H](C)c2ccc(F)cc2)c2n1CCOC2C)c1ccccc1 (stereo partly drawn) [16lg, 1-Methyl-3,4-dihydro-1H-pyrrolo[2,1-c][1,4]oxazine-6,8-dicarboxylic acid 8-{[(R)-1-(4-fluoro-phenyl)-ethyl]-amide} 6-[((R)-1-phenyl-propyl)-amide]] | 46 nM
6 | CC[C@@H](NC(=O)c1cc(C(=O)NC(C)c2ccon2)n2c1COCC2)c1ccccc1 (mixture of isomers) [16in, 3,4-Dihydro-1H-pyrrolo[2,1-c][1,4]oxazine-6,8-dicarboxylic acid 6-[(-1-isoxazol-3-yl-ethyl)-amide] 8-[((R)-1-phenyl-propyl)-amide]] | 370 nM
7 | CC[C@@H](NC(=O)c1cc(C(=O)N2CCC[C@@H]2C)n2c1COCC2)c1ccc(C(F)(F)F)nc1 [16e, 6-((S)-2-methyl-pyrrolidine-1-carbonyl)-3,4-dihydro-1H-pyrrolo[2,1-c][1,4]oxazine-8-carboxylic acid [(R)-1-(6-trifluoromethyl-pyridin-3-yl)-propyl]-amide] | 470 nM
8 | CC[C@H]1CCCN1C(=O)c1cc(C(=O)N[C@H](CC)c2ccc(C(F)(F)F)nc2)c2n1CCOC2 [16le, 6-((S)-2-Ethyl-pyrrolidine-1-carbonyl)-3,4-dihydro-1H-pyrrolo[2,1-c][1,4]oxazine-8-carboxylic acid [(R)-1-(6-trifluoromethyl-pyridin-3-yl)-propyl]-amide] | 470 nM
9 | CC[C@@H](NC(=O)c1cc(C(=O)NC(C)c2ccon2)n2c1COCC2)c1ccccc1 (mixture of isomers) [16im, 3,4-Dihydro-1H-pyrrolo[2,1-c][1,4]oxazine-6,8-dicarboxylic acid 6-[(-1-isoxazol-3-yl-ethyl)-amide] 8-[((R)-1-phenyl-propyl)-amide]] | 140 nM
10 | CC[C@H](NC(=O)c1cc(C(=O)NCC2CC2)c2n1CCOC2)c1ccccc1 [16jr, 3,4-Dihydro-1H-pyrrolo[2,1-c][1,4]oxazine-6,8-dicarboxylic acid 8-cyclopropylmethyl-amide 6-[((S)-1-phenyl-propyl)-amide]] | 470 nM
11 | CC[C@@H](NC(=O)c1cc(C(=O)N2CCC[C@@H]2C)n2c1COCC2)c1ccc(OC(F)F)cc1 [16av, 6-((S)-2-Methyl-pyrrolidine-1-carbonyl)-3,4-dihydro-1H-pyrrolo[2,1-c][1,4]oxazine-8-carboxylic acid [(R)-1-(4-difluoromethoxy-phenyl)-propyl]-amide] | 470 nM
